Shown is part of a subset that was picked to be rich in hits.
GIV Gai3 FP – inhibitors of GIV GBA-motif binding to rat Galpha-i3; percent of control (FP), % (concentration not given with the values); AID 1224905; Galpha-i3/FITC-GIV peptide fluorescence polarization, 90 min; stronger effect = lower value; scaled: aluminum fluoride 0%, vehicle 100%; 210,000 compounds, 0.42% hits; P08753;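 active means replicate mean at 85% of control or lower, very high polarization wells dropped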;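 further: wells of about 15 µL received 100 nL stock; the first replicate is given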
HCMV UL50-53 inh – inhibitors of HCMV UL50-UL53 nuclear egress complex interaction; HTRF UL50-UL53 interaction, normalized percent inhibition; inhibition, % (test concentration not listed); 0.15% of 190,000 active; in the data active = inhibition above about 27%, passing the limit was not always enough
GIV Gai FP conf – confirmation of inhibitors of GIV binding to rat Galpha-i3 | shares compounds with GIV Gai3 FP | FITC-GIV peptide binding to Galphai3, fluorescence polarization; hits give low values | fluorescence polarization, mP at 100 µM | 38% of 580 active | AID 1259350;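 active = inhibition score of 15 or more, meaning 100 minus mean polarization as percent of control over three replicates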;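 also: lower mP means peptide displaced from Galphai3 so more inhibition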
GIV-Gai AS conf – GIV-Galpha-i3 inhibition, AlphaScreen confirmation | shares compounds with GIV Gai3 FP | AlphaScreen Galphai3-GIV binding, purified proteins, 90 min; hits give low values | AlphaScreen counts at 100 µM | 39% of 580 active;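 active = inhibition score at or above a set limit, where the score is 100 minus the three-replicate mean percent of control signal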
A number is an active result; – = inactive; · = no result.

SMILES	GIV Gai3 FP	HCMV UL50-53 inh	GIV Gai FP conf	GIV-Gai AS conf
O=C(O)c1ccc(C(=O)Nc2cccc(Cl)c2)c(C(=O)O)c1	64	–	62	–
O=C(O)c1cccc(NC(=O)c2ccccc2C(=O)O)c1	–	–	·	·
CCNc1cc(C)nc(Nc2ccc(NS(=O)(=O)c3ccc(C)cc3)cc2)n1	–	·	·	·
Cc1cccc(N2C(=O)N(Cc3cc(=O)n4ccccc4n3)c3ccccc3S2(=O)=O)c1	–	·	·	·
CCc1ccccc1N1C(=O)N(Cc2cc(=O)n3ccccc3n2)c2ccccc2S1(=O)=O	–	·	–	–
O=C(Cn1nc(C(=O)O)c2ccccc2c1=O)Nc1ccc(N2CCCCC2)cc1	·	–	·	·
O=C(O)CCN1C(=O)Cc2ccccc2C1=O	·	–	·	·
NC(=O)CN1C(=O)Cc2ccccc2C1=O	63	–	58	12845
CCOC(=O)c1c(NC(=O)C(C)Sc2nnc(CNC(=O)c3cccc(F)c3)n2C)sc2c1CCCCC2 (configuration not stated)	–	·	·	·
CSc1nc(C)nc(Sc2ccccc2)c1C#N	–	–	·	·
N#Cc1c(Sc2ccccc2)ncc2cc3ccccc3nc12	79	–	–	–
CCCc1noc2c1/C(=N\O)CC(C)(C)C2	·	–	·	·
Cc1c(C(=O)NC(C)C)oc2c1-c1[nH]ncc1CC2	69	70	51	26222
Cc1cccc(NC(=O)c2oc3c(c2C)-c2[nH]ncc2CC3)c1C	–	–	·	·
O=C(NCc1ccco1)c1cc(-c2ccc(F)cc2)no1	–	·	·	·
CCCOc1ccc2c(c1)C(=O)c1cc(OCC(=O)O)ccc1-2	80	–	–	–
CCOc1ccc2c(c1)C(=O)c1cc(OCC(=O)OC)ccc1-2	–	·	·	·
Cc1ccc(C)c2[nH]c(=O)c(C3NC(=O)c4ccccc4N3)cc12 (configuration not stated)	–	–	·	·
N#Cc1ccc(NC(=O)Nc2cccc3ccccc23)cc1	·	–	·	·
CC1(C)CC(=O)C2=C(C1)Nc1ccccc1S2	78	–	–	–
CC1(C)CC(=O)C2=C(C1)Nc1ccccc1NC2c1ccccc1F (configuration not stated)	–	–	·	·
CCC(=O)C1=C(c2ccc(C(C)(C)C)cc2)N(C(=O)CC)n2cnnc2S1	–	·	·	·
Cc1ccc(-c2ccc(OCCNS(=O)(=O)N(C)C)nn2)cc1	–	·	·	·
Nc1ccc2c(c1)C(=O)N(CCO)C2=O	–	–	–	–
Nc1ccc2c(c1)C(=O)N(CCCCN1C(=O)c3ccc(N)cc3C1=O)C2=O	–	–	·	·
SMILES	GIV Gai3 FP	HCMV UL50-53 inh	GIV Gai FP conf	GIV-Gai AS conf
CCN(c1ccccc1)C1(O)C(=O)c2ccccc2C1=O	–	·	·	·
O=C(CC1(O)C(=O)c2ccccc2C1=O)c1ccccc1	·	–	·	·
O=C1c2ccccc2C(=O)C2(O)OCCOC12O (configuration not stated)	51	106	62	–
CCOC1(O)C(=O)c2ccccc2C(=O)C1(O)OCC (configuration not stated)	72	97	–	–
COc1ccc(-c2noc(CCC(=O)NC(C)C)n2)cc1OC	–	–	·	·
Oc1cccc(-c2nc3cnc(Br)cn3c2Nc2ccc3c(c2)OCO3)c1	–	·	·	·
O=C1NC(=S)S/C1=C\c1c(NCc2ccco2)nc2ccccn2c1=O	–	·	·	·
CCN(CC)C(=O)CSc1nnc2c(n1)[nH]c1ccccc12	–	·	·	·
CC(Oc1ccc(Br)cc1)C(=O)NCc1ccncc1 (configuration not stated)	–	–	·	·
[N-]=[N+]=c1c(=O)ccc2c(=O)c3ccccc3c(=O)c1=2	63	–	44	2044
CCC(C)(C)C(=O)NC1CCN(C2=NS(=O)(=O)C(c3ccc(F)cc3)=C2C)CC1	–	·	·	·
Nc1nc2ccc(CCC(=O)O)cc2s1	57	–	60	3278
CCc1ccc2nc(N)sc2c1	–	·	·	·
O=c1c(=NO)c(=O)c2ccccc12	55	–	47	13907
O=c1c2ccccc2c2nc3c(=O)c4ccccc4c3nc12	–	–	·	·
CCCn1c(=O)c2ccc(C(=O)NC(C)C)cc2n2c(SCC(=O)c3ccc(OC)cc3)nnc12	–	–	·	·
CC1=NN(c2ccccc2)C(=O)C1(O)C1C(=O)c2ccccc2C1=O (configuration not stated)	74	–	56	4583
CC1=NN(c2ccccc2)C(=O)C1(C)N (configuration not stated)	–	–	·	·
COc1ccccc1NC(=O)C1=C(C)NC(SCC(=O)Nc2ccc(Br)cc2)=C(C#N)C1c1ccccc1 (configuration not stated)	–	·	·	·
COc1ccc(/C=c2\sc3nc(-c4ccccc4)c(-c4ccccc4)n3c2=O)cc1OC	–	·	·	·
COc1ccc(/C=c2\sc3nc(-c4ccccc4)c(-c4ccccc4)n3c2=O)c(OC)c1OC	–	·	–	–
CN(Cc1ccccc1)c1nnc(NC(=O)NC2CCCC2)s1	–	–	·	·
O=C(O)CCc1nnc2n(Cc3ccc(Cl)cc3)c(=O)c3ccccc3n12	–	–	·	·
On1c2c(c3c4nonc4ccc31)CCCC2	50	–	42	10129
COn1c2c(c3c4nonc4ccc31)CCCC2	–	–	·	·
CCOC(=O)c1ccc(NC(=O)c2cc3cccnc3n(C)c2=O)cc1	–	–	·	·
COc1ccc(-c2nnc(SCC(=O)Nc3cccc(C)c3C)nc2-c2ccc(OC)cc2)cc1	–	·	·	·
COc1ccc(-c2nnc(SCC(=O)Nc3ccc(C)cc3)nc2-c2ccc(OC)cc2)cc1	–	·	–	–
O=C(CN1C2=NCCCN2c2ccccc21)c1ccc(Cl)cc1	–	·	–	–
O=C(CN1C2=NCCCN2c2ccccc21)c1ccc(Cl)c(Cl)c1	–	·	·	·

Screening results as filed in PubChem BioAssay.
